## Measured affinities in a library of Ab-95 light chain variants

Antigen: PDVDLGDISGINAS, a 14-residue peptide of the SARS-CoV-2 spike HR2 region.

Parent scFv Ab-95: VH joined to VL by three GGGGS repeats. Changes lie in the light chain CDRs alone.
VH: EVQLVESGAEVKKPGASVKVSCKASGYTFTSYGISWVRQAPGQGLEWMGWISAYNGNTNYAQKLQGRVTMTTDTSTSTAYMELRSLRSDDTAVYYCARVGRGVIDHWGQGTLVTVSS
VL: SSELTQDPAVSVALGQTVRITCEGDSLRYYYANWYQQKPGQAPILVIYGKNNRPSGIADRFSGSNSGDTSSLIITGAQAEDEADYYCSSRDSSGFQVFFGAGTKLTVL

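Phage display of a naive human antibody library on the peptide gave the parent. Variants in AAYL52 differ from the parent at up to three CDR positions; double and triple changes were sampled at random. The assay is AlphaSeq: two haploid yeast populations carry antibody and antigen on their surface. Binding brings cells together so that they mate, and sequencing counts the barcode pairs among the diploids. Read counts were normalised to the haploid input and turned into Kd by a linear fit to BCL2-family pairs of known affinity, for each replicate. The assay was run in three technical replicates.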

Sequences are complete VL domains.
The read-out is the apparent dissociation constant on a log10 scale (nM): the lower, the stronger.
An entry "n.d." has no value in the source: the pair was not observed among the diploids in that replicate. This suggests poor binding but is not conclusive.
Background: pairings of library AAYL52 with three empty control strains gave a value in 28% of cases (median 3.91, 5th percentile 2.90). Values in that range, when seen in few replicates, are hard to tell from nonspecific mating. For each scFv, signals with the empty controls are counted beside the result, with their mean in brackets.

VL | replicates, log10 nM | empty controls
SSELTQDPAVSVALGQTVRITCEGVSLRQYYANWYQQKPGQAPILVIYGKNNRPSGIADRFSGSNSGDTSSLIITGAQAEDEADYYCSSRDSSGFQVFFGAGTKLTVL | 2.32 2.14 1.76 | 6/9 (4.37)
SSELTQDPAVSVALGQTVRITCEGDSLRYYYANWYQQKPGQAPILVIYEKNNRPSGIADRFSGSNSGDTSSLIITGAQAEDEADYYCSSRDSSGKQVGFGAGTKLTVL | 3.22 4.21 3.67 | 4/9 (4.15)
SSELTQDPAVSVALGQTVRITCEGDSCRGYYANWYQQKPGQAPILVIYGKNNHPSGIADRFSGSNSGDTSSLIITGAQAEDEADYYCSSRDSSGFQVFFGAGTKLTVL | 2.78 2.95 2.53 | 1/9 (4.43)
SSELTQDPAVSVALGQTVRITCEGDSLRYYYANWYQQKPGQAPILVIYGKNNRSSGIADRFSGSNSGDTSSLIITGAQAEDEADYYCCSRDSSGFQVRFGAGTKLTVL | 3.29 3.21 n.d. | 1/9 (2.91)
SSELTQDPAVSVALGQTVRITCEGKSLVYYYINWYQQKPGQAPILVIYGKNNRPSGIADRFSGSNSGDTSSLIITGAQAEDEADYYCSSRDSSGFQVFFGAGTKLTVL | 3.91 3.24 3.78 | 3/9 (4.01)
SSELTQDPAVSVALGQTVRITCEGDSLRYYYANWYQQKPGQAPILVIYKKNNRPYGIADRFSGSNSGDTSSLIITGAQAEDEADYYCSCRDSSGFQVFFGAGTKLTVL | n.d. 4.55 n.d. | 2/9 (3.56)
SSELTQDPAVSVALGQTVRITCEGDSLRYYYANWYQQKPGQAPILVIYGKMNRPYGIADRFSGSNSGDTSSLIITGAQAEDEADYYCSSRDSSGFQDFFGAGTKLTVL | 4.17 4.53 n.d. | 3/9 (4.41)
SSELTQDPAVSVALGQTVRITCEGDSLRYYIANWYQQKPGQAPILVIYGKNVRPSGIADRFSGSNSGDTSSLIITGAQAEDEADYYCSSRDSSPFQVFFGAGTKLTVL | n.d. 5.77 n.d. | 3/9 (3.98)
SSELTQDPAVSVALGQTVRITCEGDQLRYYYALWYQQKPGQAPILVIYGKNNRPSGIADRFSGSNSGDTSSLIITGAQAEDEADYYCSRRDSSGFQVFFGAGTKLTVL | 3.80 n.d. 3.39 | 1/9 (4.81)
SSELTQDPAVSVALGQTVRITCEGDSLRYDRANWYQQKPGQAPILVIYGKNNRPSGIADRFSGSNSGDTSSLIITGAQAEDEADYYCSSRDSSGFQVFFGAGTKLTVL | 2.11 2.47 2.01 | 1/9 (3.92)
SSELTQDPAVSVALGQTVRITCEGDHLRYYYANWYQQKPGQAPILVIYGKNNRLSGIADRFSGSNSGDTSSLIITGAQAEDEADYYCSSFDSSGFQVFFGAGTKLTVL | 4.21 5.52 n.d. | 0/9
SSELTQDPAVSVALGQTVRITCEGDWLRYYYANWYQQKPGQAPILVIYGKNNRPNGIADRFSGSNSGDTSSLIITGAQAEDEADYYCSSRDSSGFQMFFGAGTKLTVL | n.d. 4.66 n.d. | 2/9 (3.49)
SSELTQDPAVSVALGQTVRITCEGDSLRYYYALWYQQKPGQAPILVIYGKNNRPSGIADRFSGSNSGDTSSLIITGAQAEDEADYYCSSRDSVGFQVKFGAGTKLTVL | 4.57 n.d. 4.19 | 1/9 (4.50)
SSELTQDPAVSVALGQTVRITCEGDSLRYFYANWYQQKPGQAPILVIYGKNNRPSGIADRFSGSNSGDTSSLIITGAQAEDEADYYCSSVDSSGFQFFFGAGTKLTVL | 3.91 3.40 3.51 | 3/9 (3.18)
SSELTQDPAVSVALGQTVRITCEGDSLRYYYANWYQQKPGQAPILVIYGQNNRPSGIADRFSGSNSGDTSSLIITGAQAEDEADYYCSSRDISGFQVFFGAGTKLTVL | 2.02 2.22 1.94 | 1/9 (3.42)
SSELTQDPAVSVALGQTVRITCEGDSLRYYYANWYQQKPGQAPILVIYGKINRPSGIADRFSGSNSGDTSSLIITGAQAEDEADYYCKSRDSSYFQVFFGAGTKLTVL | n.d. n.d. 3.81 | 1/9 (4.00)
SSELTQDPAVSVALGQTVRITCEGDSLRYYYANWYQQKPGQAPILVIYTKSNRPSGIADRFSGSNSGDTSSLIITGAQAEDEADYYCSSRDSSGFQGFFGAGTKLTVL | n.d. 3.82 n.d. | 1/9 (3.87)
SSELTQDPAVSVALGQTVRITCEPDSLRYYYANWYQQKPGQAPILVIYDKNNRPTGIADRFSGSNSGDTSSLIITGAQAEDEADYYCSSRDSSGFQVFFGAGTKLTVL | n.d. 3.34 2.88 | 1/9 (3.60)
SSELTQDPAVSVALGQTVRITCEGDSLRYYYANWYQQKPGQAPILVIYGKNNPSSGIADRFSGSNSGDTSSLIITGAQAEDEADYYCSSYDSSGFQVFFGAGTKLTVL | n.d. n.d. n.d. | 0/9
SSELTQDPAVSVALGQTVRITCEGDSLRAIYANWYQQKPGQAPILVIYGKNNRPSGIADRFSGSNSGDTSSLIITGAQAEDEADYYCSSRDSSGFQVFFGAGTKLTVL | 2.00 1.90 1.56 | 2/9 (3.63)
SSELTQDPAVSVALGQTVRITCEGDSLRYGYANWYQQKPGQAPILVIYGKNNRCSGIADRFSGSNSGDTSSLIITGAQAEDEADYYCSSRDSSGFQVFFGAGTKLTVL | 0.93 0.69 0.21 | 5/9 (4.23)
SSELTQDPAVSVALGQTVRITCEGASLRYYYANWYQQKPGQAPILVIYGKRNRPSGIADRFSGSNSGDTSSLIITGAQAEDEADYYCSSRSSSGFQVFFGAGTKLTVL | 4.70 3.43 3.86 | 2/9 (3.91)
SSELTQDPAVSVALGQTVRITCEGRRLRYYYANWYQQKPGQAPILVIYGKNNRPPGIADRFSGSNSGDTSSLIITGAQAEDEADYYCSSRDSSGFQVFFGAGTKLTVL | 4.34 n.d. n.d. | 1/9 (3.56)
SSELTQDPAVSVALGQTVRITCEGDSLRYYYANWYQQKPGQAPILVIYGKNNRPSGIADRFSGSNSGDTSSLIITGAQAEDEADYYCSMRDSSMFQKFFGAGTKLTVL | n.d. 2.13 2.32 | 0/9
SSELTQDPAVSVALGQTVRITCEGDCLRYYYANWYQQKPGQAPILVIYGMNVRPSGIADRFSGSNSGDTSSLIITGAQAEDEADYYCSSRDSSGFQVFFGAGTKLTVL | 4.14 n.d. n.d. | 1/9 (2.86)
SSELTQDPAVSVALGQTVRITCEGDSLRWYYANWYQQKPGQAPILVIYKKNNRPSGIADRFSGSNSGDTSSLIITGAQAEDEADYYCSSFDSSGFQVFFGAGTKLTVL | n.d. n.d. n.d. | 3/9 (3.94)

From the list, the first 2 with no signal in any replicate:

| VL | replicates, log10 nM | empty controls |
|---|---|---|
| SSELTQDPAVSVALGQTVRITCEGDSLRYYYANWYQQKPGQAPILVIYGKNNPSSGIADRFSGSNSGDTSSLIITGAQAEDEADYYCSSYDSSGFQVFFGAGTKLTVL | n.d. n.d. n.d. | 0/9 |
| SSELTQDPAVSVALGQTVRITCEGDSLRWYYANWYQQKPGQAPILVIYKKNNRPSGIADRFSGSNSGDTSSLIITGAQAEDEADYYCSSFDSSGFQVFFGAGTKLTVL | n.d. n.d. n.d. | 3/9 (3.94) |

From the AlphaSeq antibody data of Engelhart et al. 2022 (doi:10.1038/s41597-022-01779-4), copy in the FLAb collection.